Ab-14 light chain CDR variants: yeast mating affinities

Data: MIT Lincoln Laboratory AlphaSeq set, Engelhart et al. 2022, doi:10.1038/s41597-022-01779-4, as distributed in FLAb.

The target is the same throughout: PDVDLGDISGINAS, from the HR2 region of SARS-CoV-2 spike.

Parent scFv Ab-14: VH joined to VL by a 15-residue (Gly4Ser)3 linker. Changes lie in the light chain CDRs alone.
VH: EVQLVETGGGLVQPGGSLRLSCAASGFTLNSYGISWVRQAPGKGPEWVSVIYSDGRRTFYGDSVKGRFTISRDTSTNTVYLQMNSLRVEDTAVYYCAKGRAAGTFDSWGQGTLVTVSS
VL: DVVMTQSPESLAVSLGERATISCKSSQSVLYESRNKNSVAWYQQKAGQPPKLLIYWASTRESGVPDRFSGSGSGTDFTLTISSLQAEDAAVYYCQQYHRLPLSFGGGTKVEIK

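The starting antibody came from a phage panning campaign against this peptide. Library AAYL50 holds single substitutions and randomly drawn double and triple substitutions in the CDRs. In AlphaSeq, yeast of one mating type display the scFv and yeast of the other type display the target. After mating in shaken culture at 30 °C for 16 h, diploids were selected and their barcode pairs sequenced. A regression on co-assayed BCL2-family reference pairs converts the normalised counts of each replicate to an apparent Kd. There are three technical replicates.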

Each variant is given by its three light chain CDRs, as the data file delimits them; those of the parent are KSSQSVLYESRNKNSVA, WASTRES, QQYHRLPLS. Numbers give log10(Kd / nM), so 0 is 1 nM and 3 is 1 µM. Smaller is tighter. Averages over replicates are reported, and they cover detected replicates only. "nd" marks a missing value. The strain was present, yet no cells mated with the target were sequenced in any replicate, which points to weak or no binding.

CDR-L1 | CDR-L2 | CDR-L3 | mean, log10 nM | replicates with signal | control signals
KYSQSVLGESVNKNSVA | WASTRES | QQYHRLPLS | -0.15 | 3 of 3 | 0 of 9
KSSQNVPYESRNKNSVA | WASTRES | QQYHREPLS | nd | 0 of 3 | 2 of 9
KSSGSVLYESRNKNSVA | WASTRES | QHYHRGPLS | nd | 0 of 3 | 0 of 9
KSSQDVLYDSRNKNSVA | WASTRES | QQSHRLPLS | 2.22 | 3 of 3 | 2 of 9
KSSQSVLYESRNKNSVA | WASTRES | QQYPRLPNS | nd | 0 of 3 | 2 of 9
KSSQSVLWESRNKNSVA | WASTRES | QQYHRLGLS | 2.31 | 3 of 3 | 2 of 9
KSSHSVLYESRNKNSVA | WASTREM | QQYHTLPLS | 0.96 | 3 of 3 | 0 of 9
KSSQSVLYESRNKNSKA | WASTRGS | EQYHRLPLS | nd | 0 of 3 | 0 of 9
KSSQSPLYESRNKNSVA | WISDRES | QQYHRLPLS | 5.11 | 1 of 3 | 1 of 9
KSSQSVLYESRRKNSVA | WASTRES | QQYNRLPLS | nd | 0 of 3 | 1 of 9
FSSQSVLYELRNKNSVA | WASTRES | QQYCRLPLS | 3.62 | 1 of 3 | 3 of 9
KSSQSVLYESRNLNSVA | WWSTREL | QQYHRLPLS | nd | 0 of 3 | 0 of 9
KSSQSVLYESRNKNSQA | WATTRDS | QQYHRLPLS | 3.43 | 2 of 3 | 0 of 9
KSSQSVLYTSNNKNSVA | WASTRES | QQYHRLPLS | 0.17 | 3 of 3 | 0 of 9
KSSQSPLYESRNKNSVN | WASNRES | QQYHRLPLS | 3.37 | 1 of 3 | 2 of 9
DSSQSVLYESRNKNSVA | VASTRES | QQYHRLPNS | 5.30 | 1 of 3 | 2 of 9
KSSQSVLLESRNKNSVA | WPSTRES | QQYHRLPLP | nd | 0 of 3 | 2 of 9
KISQSVLYESRNKNSVA | WASPRES | QVYHRLPLS | nd | 0 of 3 | 1 of 9
KSSQSVLEESKNKNSVA | KASTRES | QQYHRLPLS | 0.30 | 3 of 3 | 0 of 9
KSGQSVLYESHNKNSVA | WASTRES | QIYHRLPLS | 2.95 | 3 of 3 | 2 of 9
KSSQSVLKEKRNKNSVA | WASTRES | QQHHRLPLS | 4.80 | 1 of 3 | 1 of 9
KESQSVLYESRNKNSVN | WASTRES | QQYHRLPLC | 3.56 | 1 of 3 | 2 of 9

Second part, the sequence after the result:

mean, log10 nM | replicates with signal | control signals | CDR-L1 | CDR-L2 | CDR-L3
3.59 | 3 of 3 | 1 of 9 | KSSQSVLYEARNKNSVA | WASYRES | GQYHRLPLS
nd | 0 of 3 | 0 of 9 | KSSQSVLYEHRNKNSVA | WISIRES | QQYHRLPLS
4.33 | 2 of 3 | 0 of 9 | KSSQSVLYESRNVNTVA | WCSTRES | QQYHRLPLS
1.01 | 3 of 3 | 2 of 9 | KSSQSVAQESRNKNSVA | WASLRES | QQYHRLPLS
2.46 | 2 of 3 | 1 of 9 | KSSQSALYESRNKNSVA | WCSTRES | QQYHRLPLS
nd | 0 of 3 | 0 of 9 | KSSQSVLYESRNKNSVA | WASTRRS | QQYHKLPWS
nd | 0 of 3 | 1 of 9 | CSCQSVLYESRNKNSVA | WASTGES | QQYHRLPLS
0.40 | 3 of 3 | 0 of 9 | KDSQSLLYDSRNKNSVA | WASTRES | QQYHRLPLS
0.86 | 3 of 3 | 2 of 9 | SSDQSALYESRNKNSVA | WASTRES | QQYHRLPLS
1.07 | 3 of 3 | 3 of 9 | KSSQSVLYESRNKNSVA | WASTRES | QQYHKLPIS
2.76 | 1 of 3 | 1 of 9 | KSSQSVLYESRNKNSVA | WHSTRDS | QQYHRLKLS
0.77 | 3 of 3 | 2 of 9 | KSSQSVLQEARNKNSVA | WASTRES | QQYHRLPLS
nd | 0 of 3 | 1 of 9 | KSSQSVLSESRRKNSVA | WASTRES | KQYHRLPLS
2.51 | 3 of 3 | 2 of 9 | KESQSVLYESRNLNSVA | WASTRES | HQYHRLPLS
nd | 0 of 3 | 1 of 9 | KDSQSVLMESRNKNSVA | WASTRES | QQMHRLPLS
1.53 | 3 of 3 | 8 of 9 | KSSQDVLYESRNKNSVA | WESTRES | QQYHRLPFS
nd | 0 of 3 | 0 of 9 | PSSQSVLYEERNKNSMA | WASTRES | QQYHRLPLS
4.68 | 2 of 3 | 3 of 9 | KSSQSVLYESSNKNSVA | WASTRES | VQYHRYPLS
1.84 | 3 of 3 | 1 of 9 | KSSQEVLYESREKNSVA | WASTRES | LQYHRLPLS
nd | 0 of 3 | 2 of 9 | KSSQSVLLESRNKNSSA | WASTRES | QQYHRLELS
6.45 | 1 of 3 | 0 of 9 | KKIQIVLYESRNKNSVA | WASTRES | QQYHRLPLS
3.07 | 3 of 3 | 2 of 9 | KASQSVLYELRNKNSVA | WASTRES | QSYHRLPLS
nd | 0 of 3 | 0 of 9 | KSSQSVLYESRNKNSVD | WASTEES | QQYHRGPLS

The 7 strongest on average among those seen in every replicate, once more:

CDR-L1,CDR-L2,CDR-L3,"mean, log10 nM",replicates with signal,control signals
KYSQSVLGESVNKNSVA,WASTRES,QQYHRLPLS,-0.15,3 of 3,0 of 9
KSSQSVLYTSNNKNSVA,WASTRES,QQYHRLPLS,0.17,3 of 3,0 of 9
KSSQSVLEESKNKNSVA,KASTRES,QQYHRLPLS,0.30,3 of 3,0 of 9
KDSQSLLYDSRNKNSVA,WASTRES,QQYHRLPLS,0.40,3 of 3,0 of 9
KSSQSVLQEARNKNSVA,WASTRES,QQYHRLPLS,0.77,3 of 3,2 of 9
SSDQSALYESRNKNSVA,WASTRES,QQYHRLPLS,0.86,3 of 3,2 of 9
KSSHSVLYESRNKNSVA,WASTREM,QQYHTLPLS,0.96,3 of 3,0 of 9

Background: pairings of library AAYL50 with three empty control strains gave a value in 18% of cases (median 4.19, 5th percentile 2.99). Values in that range, when seen in few replicates, are hard to tell from nonspecific mating. The control count says in how many pairings with the empty strains this scFv gave a signal. Parent in this assay: reference entry 0.65, copy in this library 1.68.